Source: patent US20150258078A1, “COMPOSITIONS CONTAINING BERBERINE AND PANTETHINE AND METHODS FOR TREATMENT OF LIPID METABOLISM DISORDERS” (priority 2014, published 2015)
Read-outs that look alike come from different tables or passages of the source.

Key:
[1] = system: patients with hyperlipidemia; conditions: for LDL / triglycerides / HDL / total cholesterol: fasting serum, after 6 weeks; for LDL: N 0-99; for triglycerides: N 0-149; for HDL: N >39; for total cholesterol: N 100-199
[2] = system: patients with elevated cholesterol and triglycerides; conditions: cited from earlier work

Pantethine
LDL ([1]; Patient No. 1): 75 mg/dL | triglycerides ([1]; Patient No. 1): 228 mg/dL | HDL ([1]; Patient No. 1): 48 mg/dL | total cholesterol ([1]; Patient No. 1, pantethine 300 mg PO BID, berberine 250 mg PO BID): 169 mg/dL | LDL ([1]; Patient No. 2): 177 mg/dL | triglycerides ([1]; Patient No. 2): 237 mg/dL | total cholesterol ([1]; Patient No. 2): 279 mg/dL | HDL ([1]; Patient No. 2): 38 mg/dL | LDL ([1]; Patient No. 3): 121 mg/dL | triglycerides ([1]; Patient No. 3): 164 mg/dL | total cholesterol ([1]; Patient No. 3): 181 mg/dL | HDL ([1]; Patient No. 3): 44 mg/dL | LDL ([1]; Patient No. 4): 203 mg/dL | triglycerides ([1]; Patient No. 4): 314 mg/dL | total cholesterol ([1]; Patient No. 4): 244 mg/dL | HDL ([1]; Patient No. 4): 42 mg/dL | LDL ([1]; Patient No. 5): 71 mg/dL | triglycerides ([1]; Patient No. 5): 220 mg/dL | total cholesterol ([1]; Patient No. 5): 162 mg/dL | HDL ([1]; Patient No. 5): 43 mg/dL | total serum cholesterol, LDL, triglycerides and HDL ([1]; all five patients, over baseline): improvement | LDL cholesterol ([2]; 600 and 900 mg/d doses, individuals with greatly or moderately elevated levels of blood lipids): statistically significant lowering | LDL cholesterol decreased ([2]; multiple clinical trials, daily intakes 600 to 1200 mg/day): 12%
